Data set [1] addresses myosin-5B heavy meromyosin heavy chain (amino acids 1-1095) (murine) (UniProt P21271). Put plainly: co-sedimentation; 3 uM myosin-5B heavy meromyosin with 15 uM F-actin; 10 mM MOPS pH 7.2, 150 mM NaCl, 0.1 mM EGTA, 3 mM NaN3, free Ca2+ ~0 to 400 uM; 15 min at room temperature, 100,000 x g for 20 min at 4 °C; CaM in supernatant and pellet by gel densitometry.
Data set [2] has as its system Nc1ncnc2c1ncn2[C@@H]1O[C@H](COP(=O)(O)OP(=O)(O)OP(=O)(O)O)[C@@H](O)[C@H]1O. Put plainly: purified protein. Conditions: 30 µM F-actin (rabbit skeletal muscle), 2 mM MgCl2, 50 mM NaCl, 10 mM MOPS pH 7.0, 0.15 mM EGTA, 25 °C.

Percent of CaM dissociated from myosin-5B by increasing Ca^2+, Km and kcat data for two substances are collected here from PMC6054644.

As a reminder, the Km is the concentration of substrate that gives half-maximal velocity. The kcat is the number of substrate molecules converted per active site and unit of time at saturation.

As to “calmodulin (CaM) (from UniProt P0DP29 1-149) (natural protein)”, in data set [1], the percent of CaM dissociated from myosin-5B by increasing Ca^2+ worked out at 25%.

“myosin-5B heavy meromyosin (myosin-5B) (Mus musculus)”: in data set [2], the Km amounted to 59.07 ± 6.95 µM and the kcat was determined as 6.41 ± 0.14 s⁻¹.
